Measured values from patent US20040180925A1, “Dipeptidylpeptidase-IV inhibitor” (priority 2000, published 2004).

Amino acid sequences for entries named in this document (tags omitted). Residues count along the entry.
UniProt P14740, 37-767 limits assumed: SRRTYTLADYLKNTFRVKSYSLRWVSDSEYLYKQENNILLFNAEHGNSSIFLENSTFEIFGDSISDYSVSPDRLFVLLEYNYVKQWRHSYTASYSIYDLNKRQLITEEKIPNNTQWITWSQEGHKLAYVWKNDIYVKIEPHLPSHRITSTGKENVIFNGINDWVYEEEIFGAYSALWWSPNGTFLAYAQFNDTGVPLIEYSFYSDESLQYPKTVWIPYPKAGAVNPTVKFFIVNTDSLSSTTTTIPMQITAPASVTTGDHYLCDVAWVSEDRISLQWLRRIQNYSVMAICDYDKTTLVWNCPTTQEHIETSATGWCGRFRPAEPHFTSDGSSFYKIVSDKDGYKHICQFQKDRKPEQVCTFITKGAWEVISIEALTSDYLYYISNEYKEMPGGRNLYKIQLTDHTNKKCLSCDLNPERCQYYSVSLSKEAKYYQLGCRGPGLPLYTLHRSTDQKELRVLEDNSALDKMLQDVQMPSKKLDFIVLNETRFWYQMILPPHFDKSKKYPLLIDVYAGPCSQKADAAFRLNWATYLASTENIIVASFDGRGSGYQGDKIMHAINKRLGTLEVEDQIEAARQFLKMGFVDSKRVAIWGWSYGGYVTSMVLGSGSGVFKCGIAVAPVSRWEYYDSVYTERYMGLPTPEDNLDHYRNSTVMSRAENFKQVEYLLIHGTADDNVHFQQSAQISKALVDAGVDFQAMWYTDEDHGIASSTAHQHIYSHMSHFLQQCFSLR

Molecular target: T1, DPP-IV (Rattus norvegicus, UniProt P14740)
T1 construct: The coagulated blood was centrifuged at 3,000 rpm for 20 minutes to separate serum for use in the experiment; from tissue; host or cells: rat serum (blood from the crural aorta, coagulated and centrifuged)
Assay: Test for inhibitory action against DPP-IV (rat serum, Gly-Pro-AMC fluorescence)
Type: biochemical
Settings: Gly-Pro-AMC 50 μmol/L, pH 7.8, room temperature 20 minutes
Procedure: Under mild anesthesia with diethylether, a rat was incised at lower left side of the limb, and the crural aorta was cut and blood was collected. The collected blood was immediately ice-cooled. The coagulated blood was centrifuged at 3,000 rpm for 20 minutes to separate serum for use in the experiment. As reaction buffer, an aqueous solution containing HEPES (final concentration of 25 mmol/L) and sodium chloride (final concentration of 140 mmol/L) was prepared so as to give a final pH of 7.8, and used after addition of BSA (final concentration of 1%). An assay was conducted using a black, flat-bottomed 96 well plate. A test sample (2 μL) was added to each well, and the sample was added with rat serum (25 u L) and reaction buffer (25 u L) containing magnesium chloride (80 mmol/L), and the mixture was left stand at room temperature for 5 minutes. […] AMC, which was released by DPP-IV activity, was quantified by measurement of fluorescence at 460 nm which was excited at 390 nm. DPP-IV activity was calculated according to the following equation: […]
F100: Fluorescence intensity of AMC with addition of serum
F0: Fluorescence intensity of AMC without addition of serum
Fs: Fluorescence intensity of AMC with addition of a sample and serum

Q: For “(R)-3-[1-(3-Cyano-2-pyridyl)-4-piperidyl]aminoacetyl-4-thiazolinecarbonitrile dihydrochloride [Compound 204]”, which IC50 is on record?
A: Its IC50 is 20 nM.
